Literature values as cited in PMC5108443 (Cardiovascular Therapeutics, 2016).

Conditions: PARADIGM-HF; cited from earlier work

Sacubitril/valsartan [LCZ696]
Incidence of hyperkalemia compared with enalapril: lower incidence
